These results are taken from BindingDB's records for doi:10.1111/j.1747-0285.2009.00909.x (Queen's University, 2010).

Each structure is given as a SMILES string.

The target in the assay is T1, Heme oxygenase 1 (Rattus norvegicus, UniProt P06762).
T1 sequence (P06762 whole entry): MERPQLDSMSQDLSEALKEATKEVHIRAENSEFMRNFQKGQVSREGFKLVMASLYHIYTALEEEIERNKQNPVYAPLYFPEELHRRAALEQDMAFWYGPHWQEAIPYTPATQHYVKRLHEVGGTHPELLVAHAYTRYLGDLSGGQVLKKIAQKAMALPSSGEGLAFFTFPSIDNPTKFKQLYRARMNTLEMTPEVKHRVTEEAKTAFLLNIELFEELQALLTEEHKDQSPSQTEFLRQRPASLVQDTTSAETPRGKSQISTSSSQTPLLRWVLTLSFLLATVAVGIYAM
Description: Heme Oxygenase. The note with it: pH 7.4; 25 °C. As for the experimental part:
Heme oxygenase activity in rat spleen and brain microsomal fractions was determined by the quantitation of CO formed from the degradation of methemalbumin (heme complexed with albumin). Spleen and brain (SpragueâDawley rats) microsomal fractions were prepared according to the procedure outlined by Appletonet al. Protein concentration of microsomal fractions was determined by a modification of the Biuret method. Incubations for HO activity analysis were performed under conditions for which the rate of CO formation [pmol CO â (min mg protein)] was linear with respect to time and microsomal protein concentration. […] […]

Turning to `O=C(CCc1ccccc1)Cn1ccnc1`, the IC50 was determined as 4 mM.
